Reference: patent US20070129419A1, “Serotonin transporter (SERT) inhibitors for the treatment of depression and anxiety” (priority 2005, published 2007)

By UniProt entry, the sequences of proteins in these tests, tags left out.
UniProt P25103, whole entry: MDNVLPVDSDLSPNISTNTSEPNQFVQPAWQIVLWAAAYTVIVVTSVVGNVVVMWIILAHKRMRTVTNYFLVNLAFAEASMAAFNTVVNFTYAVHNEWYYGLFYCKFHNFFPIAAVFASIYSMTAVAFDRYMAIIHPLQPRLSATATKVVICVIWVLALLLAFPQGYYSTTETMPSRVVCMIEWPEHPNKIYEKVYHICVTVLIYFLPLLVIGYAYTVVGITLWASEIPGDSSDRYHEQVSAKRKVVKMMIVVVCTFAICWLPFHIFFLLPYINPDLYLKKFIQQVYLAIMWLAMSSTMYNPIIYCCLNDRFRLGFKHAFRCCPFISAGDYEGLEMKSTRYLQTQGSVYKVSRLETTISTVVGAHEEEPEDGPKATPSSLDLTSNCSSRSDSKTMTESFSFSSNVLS
UniProt P31645, whole entry: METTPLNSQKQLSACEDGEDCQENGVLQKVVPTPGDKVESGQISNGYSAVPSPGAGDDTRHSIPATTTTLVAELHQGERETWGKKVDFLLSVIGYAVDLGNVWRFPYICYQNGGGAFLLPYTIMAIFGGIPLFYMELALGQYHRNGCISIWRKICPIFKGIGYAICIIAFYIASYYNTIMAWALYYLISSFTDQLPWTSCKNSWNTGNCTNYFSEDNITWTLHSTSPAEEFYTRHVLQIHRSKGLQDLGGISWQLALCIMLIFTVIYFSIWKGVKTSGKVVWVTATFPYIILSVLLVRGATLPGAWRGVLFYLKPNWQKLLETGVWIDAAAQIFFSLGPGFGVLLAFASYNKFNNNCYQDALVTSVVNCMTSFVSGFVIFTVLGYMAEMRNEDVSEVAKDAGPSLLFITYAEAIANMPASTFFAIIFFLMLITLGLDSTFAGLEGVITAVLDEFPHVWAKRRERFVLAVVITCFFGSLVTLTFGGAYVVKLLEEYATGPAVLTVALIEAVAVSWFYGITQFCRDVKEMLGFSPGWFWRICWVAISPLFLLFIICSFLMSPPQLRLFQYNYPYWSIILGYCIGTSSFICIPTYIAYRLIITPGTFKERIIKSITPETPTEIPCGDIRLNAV

Experiments:
human NK-1 receptor = human NK-1 receptor (Homo sapiens, UniProt P25103); experiment: hNK-1 binding assay ([3H]substance P displacement, CHO cells); conditions: [3H]substance P 0.6 nM, CHO cells transfected with human NK-1 receptor
Description: The affinity of test compounds for the NK-1 receptor was evaluated at human NK-1 receptors in CHO cells transfected with the human NK-1 receptor using the Semliki virus expression system and radiolabelled with [^3H]substance P (final concentration 0.6 nM). Binding assays were performed in HEPES buffer (50 mM, pH 7.4) containing BSA (0.04%) leupeptin (8 μg/ml), MnCl2 (3 mM) and phosphoramidon (2 μM). Binding assays consisted of 250 μl of membrane suspension (1.25×10^5 cells/assay tube), 125 μl of buffer of displacing agent and 125 μl of [^3H]substance P. Displacement curves were determined with at least ten concentrations of the compound. The assay tubes were incubated for 60 min at room temperature after which time the tube contents were rapidly filtered under vacuum through GF/C filters presoaked for 60 min with PEI (0.3%) with 2×2 ml washes of HEPES buffer (50 mM, pH 7.4). The radioactivity retained on the filters was measured by scintillation counting. All assays were performed in duplicate in at least 2 separate experiments.
The inhibition dissociation constant (Ki) of each compound for NK1 is determined as described above for hSERT.

recombinant human SERT = recombinant human SERT (Homo sapiens, UniProt P31645); experiment: hSERT SPA binding assay ([3H]citalopram displacement, HEK-293 membranes); conditions: [3H]citalopram 1 nM, HEK-293 membranes expressing human SERT
Description: HEK-293 cells stably expressing recombinant human SERT are maintained with DMEM high glucose with 10% FBS, 300 μg/ml G418 and 2 mM L-Glutamine and incubated at 37° C. with 5% CO2. Cells are released from culture flasks using PBS for 1-2 min. The cells are subsequently centrifuged at 1000 g's for 5 min and resuspended in PBS prior to being used in the membrane preparation.
Cells are homogenized using a Polytron in 50 mM Tris (pH 7.4). Centrifuged at 48,000×g for 15 min, and the pellet resuspended in fresh buffer. After a second centrifugation, the pellet is re-homogenized and resuspended in fresh buffer. Typically, membrane portions are aliquoted in 3 mg/ml (w:v). and stored at −80° C.
A serial dilution of test compounds in 50 mM Tris-HCl, 120 mM NaCl, KCl 5 mM (pH 7.4) is made in a white Optiplate (Packard) (100 μl/well) and the radioligand ^3[H] Citalopram (Specific activity: 60-86 Ci/mmol, Final concentration: 1 nM) is added at 50 μl/well. Membrane and beads are prepared to a ratio of 5 μg:0.6 mg, with 0.6 mg PVT-WGA Amersham beads (Cat#RPQ0282V) added per well. 50 μl of the membrane/bead mixture is added to the assay plate for a final volume of 200 μl. The mixtures are allowed to stand at room temperature for one hour, and are then counted on a Packard TopCount.
The % inhibition is calculated for each compound tested (with 100% binding being the value obtained with the incubation of membrane/beads and radioligand in buffer without compound minus the non-specific binding measured in presence of 10 μM Fluoxetine). The concentration producing 50% inhibition (IC50) is determined using an iterative non-linear curve fitting technique. The inhibition dissociation constant (Ki) of each compound is determined according to the method of Cheng-Prusoff, decribed in Biochem. Pharmacol., 1973, 22(23), pages 3099-3108.

Row | SMILES | pKi hNK1 (human NK-1 receptor) | pKi hSERT (recombinant human SERT)
1 | Fc1ccc([C@@H]2CNC[C@H]2COCc2cc(C(F)(F)F)cc(C(F)(F)F)c2)cc1 | 8.12 | 6.93
2 | FC(F)(F)c1cc(COC[C@@H]2CNC[C@H]2c2cccc(Cl)c2)cc(C(F)(F)F)c1 | 7.57 | 6.49
3 | Cc1ccccc1[C@@H]1CNC[C@H]1COCc1cc(C(F)(F)F)cc(C(F)(F)F)c1 | 7.90 | 6.28
